Experiments:
[1] = test system: diabetic rats; details: DM-AH: diabetic rats, 40 mg/kg; on day 8
[2] = test system: primary rat hepatocytes; experiment: Hepatotoxicity in primary rat hepatocytes (MTT cell viability, LDH release); details: 10 μM (higher concentration, therefore not used)

| Compound | mortality [1] | cytotoxicity in primary hepatocytes [2] |
| --- | --- | --- |
| CC(C)c1c(C(=O)Nc2ccccc2)c(-c2ccccc2)c(-c2ccc(F)cc2)n1CC[C@@H](O)C[C@@H](O)CC(=O)O [atorvastatin, Atorvastatin calcium] | all died |  |
| CC(=O)N1CCN(c2ccc(OCC3COC(Cn4ccnc4)(c4ccc(Cl)cc4Cl)O3)cc2)CC1 (centres unmarked) [ketoconazole, Ketoconazole] |  | cytotoxicity |
